Test results as given in PubChem BioAssay AID2690 (NMMLSC, 2010).
The entries are a selection whose mix differs from that of the whole data set. Activity calls are given as the source filed them.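 The calls were made as follows: active = superoxide response under a set limit, about three screen SD below normal (cut at about 65% in these data); inactive = the rest.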

Assay: reduction of superoxide in aged yeast, primary screen, HTS (AID 2690);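 also: yeast aged for seven days with compound at 30 °C before DHE staining; 100% = average MFI of all compound-treated wells on the plate with controls excluded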
Conditions: S. cerevisiae aged cells, superoxide DHE fluorescence; at 10 µM; hits give low values

Row | Structure (SMILES) | superoxide response (% of plate mean)
1 | CSc1ccccc1C(=O)NCC1(N2CCCCC2)CCCCC1 | inactive: 96.4%
2 | O=C(NCC1(N2CCCCC2)CCCCC1)c1ccc(=O)[nH]c1 | inactive: 101%
3 | O=C(NCC1(N2CCCCC2)CCCCC1)c1cccs1 | inactive: 103%
4 | COc1ccc(C(=O)NCC2(N3CCCCC3)CCCCC2)cc1 | inactive: 104%
5 | CC(C)(C)OC(=O)N1CCC(N(C(=O)c2ccccc2)c2ccc(F)cc2)CC1 | inactive: 103%
6 | COc1ccc(C(=O)NCC2(N3CCCCC3)CCCCC2)c(OC)c1OC | inactive: 95.8%
7 | CCOC(=O)N1CCC(Nc2ccc(OC)cc2)CC1 | inactive: 88.8%
8 | N#CC1(Nc2ccccc2)CCN(Cc2ccccc2)CC1 | inactive: 97.7%
9 | O=C(NCC1(N2CCCCC2)CCCCC1)c1ccc(Cl)s1 | inactive: 86.5%
10 | O=C(OC1CN2CCC1CC2)C1c2ccccc2Oc2ccccc21 (stereo unspecified) | inactive: 98.1%
11 | COc1ccc(Cl)cc1C(=O)NCC1(N2CCOCC2)CCCCC1 | inactive: 88.9%
12 | O=C(NCC1(N2CCOCC2)CCCCC1)c1cc2ccccc2o1 | inactive: 89.9%
13 | O=C(NCC1(N2CCCCC2)CCCCC1)c1ccc(Cl)nc1 | inactive: 107%
14 | Cc1cc(C)cc(N(C(=O)c2ccccc2)C2CCN(C(=O)OC(C)(C)C)CC2)c1 | inactive: 94.8%
15 | O=C(NCC1(N2CCCCC2)CCCCC1)c1ccc(F)cc1 | inactive: 104%
16 | CCOC(=O)N1CCC(Nc2ccc(F)cc2)CC1 | inactive: 101%
17 | COc1ccc(NC2CCN(CCc3ccccc3)CC2)c(OC)c1 | inactive: 134%
18 | CCOc1ccc(C)cc1CN(CCCl)CCCl | inactive: 102%
19 | CCOC(=O)N1CCC(Nc2cccc(C)c2)CC1 | inactive: 102%
20 | COc1cc(C(=O)NCC2(N(C)C)CCCCC2)ccc1OC(F)F | inactive: 105%
21 | Cc1ccc(OCC(C)C)c(CN(CCCl)CCCl)c1 | inactive: 76.6%
22 | O=C(NCC1(N2CCCCC2)CCCCC1)c1cccc([N+](=O)[O-])c1 | inactive: 98%

Row | Structure (SMILES) | superoxide response (% of plate mean)
23 | CCN1CCC(Nc2ccc(Cl)cc2)CC1 | inactive: 110%
24 | N#CC1(Nc2ccccc2)CCN(CCc2ccccc2)CC1 | inactive: 104%
25 | O=C(NCC1(N2CCCCC2)CCCCC1)c1ccc(OC(F)F)cc1 | inactive: 96.4%
26 | COc1ccc(NC2CCN(C(=O)OC(C)(C)C)CC2)cc1 | inactive: 91.8%
27 | CN1CCN(CCOC(=O)C(O)(c2ccccc2)c2ccccc2)CC1 | inactive: 105%
28 | O=C(NCC1(N2CCOCC2)CCCCC1)c1cc(=O)[nH]c2ccccc12 | inactive: 93.8%
29 | COc1cc(C(=O)NCC2(N3CCCCC3)CCCCC2)ccc1OC(F)F | inactive: 91.1%
30 | O=C(NCC1(N2CCCCC2)CCCCC1)c1cccc(C(F)(F)F)c1 | inactive: 96.9%
31 | COc1cc(OC)c(C(=O)NCC2(N(C)C)CCCCC2)cc1OC | inactive: 70.5%
32 | O=C(NCC1(N2CCOCC2)CCCCC1)c1cc(F)c(F)cc1Cl | inactive: 103%
33 | COc1ccc(CN(CCCl)CCCl)cc1Cl | inactive: 79.4%
34 | CN(C)c1cccc(C(=O)NCC2(N3CCCCC3)CCCCC2)c1 | inactive: 106%
35 | CC(C)c1ccc(NC2CCN(C(=O)OC(C)(C)C)CC2)cc1 | inactive: 90.8%
36 | CCCOc1ccc(C(=O)NCC2(N(C)C)CCCCC2)cc1OC | inactive: 94.2%
37 | CN1CCC(Nc2cccc(F)c2)CC1 | inactive: 124%
38 | O=C(NCC1(N2CCCCC2)CCCCC1)c1cncc(Br)c1 | inactive: 71.6%
39 | COc1ccc(C(=O)NCC2(N3CCOCC3)CCCCC2)cc1OC | inactive: 101%
40 | O=C(NCC1(N2CCOCC2)CCCCC1)c1cc(Br)ccc1Cl | inactive: 107%
41 | COc1cc(C(=O)NCC2(N3CCOCC3)CCCCC2)cc(OC)c1C | inactive: 115%
42 | CCc1cc(C(=O)NCC2(N3CCCCC3)CCCCC2)sc1C | inactive: 80.6%
43 | O=C(OC1CN2CCC1CC2)C1c2ccccc2C=Cc2ccccc21 (stereo unspecified) | inactive: 75.4%
44 | N/C(=N\O)c1c(N)no[n+]1[O-] | inactive: 117%

Row | Structure (SMILES) | superoxide response (% of plate mean)
45 | CCOC(=O)N1CCC(Nc2ccc(C)cc2)CC1 | inactive: 107%
46 | CC(C)(C)OC(=O)N1CCC(N(C(=O)c2ccccc2)c2ccc(Cl)cc2)CC1 | inactive: 101%
47 | N#Cc1ccc(C(=O)NCC2(N3CCCCC3)CCCCC2)cc1 | inactive: 107%
48 | c1ccc(CN2CCC(Nc3ccccc3)CC2)cc1 | inactive: 86.7%
49 | CCCN1CCC(Nc2cc(OC)cc(OC)c2)CC1 | inactive: 98%
50 | CN(C)C1(CNC(=O)c2cccc(C#N)c2)CCCCC1 | inactive: 100%
51 | Cc1ccc(C(=O)NCC2(N3CCCCC3)CCCCC2)o1 | inactive: 93.9%
52 | Fc1ccccc1NC1CCN(Cc2ccccc2)CC1 | inactive: 111%
53 | COc1cc(OC)cc(C(=O)NCC2(N3CCCCC3)CCCCC2)c1 | inactive: 111%
54 | O=C(NCC1(N2CCCCC2)CCCCC1)c1ccco1 | inactive: 138%
55 | CN(C)c1ccc(C(=O)NCC2(N3CCCCC3)CCCCC2)cc1 | inactive: 95.1%
56 | CCN1CCC(Nc2cccc(F)c2)CC1 | inactive: 105%
57 | CCCOc1ccc(C(=O)NCC2(N(C)C)CCCCC2)cc1 | inactive: 106%
58 | CC(C)(C)OC(=O)N1CCC(Nc2ccccc2)CC1 | inactive: 96.4%
59 | O=C(O)C1(Nc2ccccc2)CCN(Cc2ccccc2)CC1 | inactive: 103%
60 | CCOc1ncccc1C(=O)NCC1(N2CCOCC2)CCCCC1 | inactive: 99.9%
61 | CN1CCC(Nc2ccc(F)c(Cl)c2)CC1 | inactive: 102%
62 | CCCOc1ccc(C)cc1CN(CCCl)CCCl | inactive: 90.6%
63 | CN1CCC(Nc2ccc(Cl)cc2)CC1 | inactive: 100%
64 | CCC(CO)(C(=O)OC1CN2CCC1CC2)c1ccccc1 (stereo unspecified) | inactive: 90.2%
65 | COc1cccc(C(=O)N(c2cc(C)cc(C)c2)C2CCN(C(=O)OC(C)(C)C)CC2)c1 | inactive: 111%
66 | COc1cc(OC)cc(C(=O)NCC2(N3CCOCC3)CCCCC2)c1 | inactive: 95.5%
